Measured values taken from patent publication US20230227428A1 (Anaxis Pharma Pty Ltd, priority 2020, published 2023).

Sequences of proteins named here, by UniProt entry; tags and fusion partners are left off. A change or cut given only in a name is not applied to a line headed by its entry.
UniProt Q9Y572: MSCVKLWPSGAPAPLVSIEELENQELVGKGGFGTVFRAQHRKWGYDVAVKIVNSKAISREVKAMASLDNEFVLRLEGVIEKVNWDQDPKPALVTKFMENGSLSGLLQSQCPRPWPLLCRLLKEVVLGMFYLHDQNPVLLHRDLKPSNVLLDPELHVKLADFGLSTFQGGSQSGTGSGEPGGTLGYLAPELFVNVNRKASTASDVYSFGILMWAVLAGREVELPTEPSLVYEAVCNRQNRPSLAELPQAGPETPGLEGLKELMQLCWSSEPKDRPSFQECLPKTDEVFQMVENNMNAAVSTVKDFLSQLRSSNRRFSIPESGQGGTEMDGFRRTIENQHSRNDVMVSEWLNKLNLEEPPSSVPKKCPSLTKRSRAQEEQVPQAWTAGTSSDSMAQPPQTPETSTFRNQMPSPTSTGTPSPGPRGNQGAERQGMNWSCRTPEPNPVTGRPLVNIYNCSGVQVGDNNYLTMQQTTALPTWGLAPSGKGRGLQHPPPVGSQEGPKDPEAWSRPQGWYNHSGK

Legend:
Details in all cases: equilibrium dissociation constant
RIP3 = biological target: T1, RIP3 (Homo sapiens, UniProt Q9Y572); experiment: KINOMEscan binding affinity assay, RIP3
T1 construct: purchased DiscoverX (KINOMEscan service); host or cells: E. coli BL21-derived host (T7 phage) or HEK-293

RIP1 = biological target: T2, RIP1 (Homo sapiens, UniProt Q13546); experiment: KINOMEscan binding affinity assay, RIP1
T2 construct: purchased DiscoverX (KINOMEscan service); host or cells: E. coli BL21-derived host (T7 phage) or HEK-293
T2 sequence (Q13546 1-671): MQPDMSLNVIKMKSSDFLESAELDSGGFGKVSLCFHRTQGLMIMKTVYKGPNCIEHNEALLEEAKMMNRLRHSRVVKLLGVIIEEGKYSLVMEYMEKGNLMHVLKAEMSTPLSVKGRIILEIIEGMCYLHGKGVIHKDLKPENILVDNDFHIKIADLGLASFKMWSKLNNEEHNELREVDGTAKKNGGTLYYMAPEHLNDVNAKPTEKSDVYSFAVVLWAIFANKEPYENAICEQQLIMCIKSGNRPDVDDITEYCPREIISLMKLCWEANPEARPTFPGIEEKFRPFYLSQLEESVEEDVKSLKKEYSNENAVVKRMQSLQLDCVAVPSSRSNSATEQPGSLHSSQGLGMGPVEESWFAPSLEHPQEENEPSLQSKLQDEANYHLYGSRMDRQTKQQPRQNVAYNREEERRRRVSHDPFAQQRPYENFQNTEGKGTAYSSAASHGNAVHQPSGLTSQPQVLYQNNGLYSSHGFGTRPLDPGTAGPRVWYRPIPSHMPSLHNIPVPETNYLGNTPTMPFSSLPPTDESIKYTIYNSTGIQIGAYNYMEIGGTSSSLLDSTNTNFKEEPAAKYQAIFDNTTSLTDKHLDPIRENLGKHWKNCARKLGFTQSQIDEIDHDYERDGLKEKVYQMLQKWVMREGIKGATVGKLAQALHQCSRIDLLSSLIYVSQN

MLKL (full length) = biological target: T3, MLKL (full length) (Homo sapiens, UniProt Q8NB16); experiment: KINOMEscan binding affinity assay, MLKL
T3 construct: purchased DiscoverX (KINOMEscan service); host or cells: E. coli BL21-derived host (T7 phage) or HEK-293
T3 sequence (Q8NB16 1-471): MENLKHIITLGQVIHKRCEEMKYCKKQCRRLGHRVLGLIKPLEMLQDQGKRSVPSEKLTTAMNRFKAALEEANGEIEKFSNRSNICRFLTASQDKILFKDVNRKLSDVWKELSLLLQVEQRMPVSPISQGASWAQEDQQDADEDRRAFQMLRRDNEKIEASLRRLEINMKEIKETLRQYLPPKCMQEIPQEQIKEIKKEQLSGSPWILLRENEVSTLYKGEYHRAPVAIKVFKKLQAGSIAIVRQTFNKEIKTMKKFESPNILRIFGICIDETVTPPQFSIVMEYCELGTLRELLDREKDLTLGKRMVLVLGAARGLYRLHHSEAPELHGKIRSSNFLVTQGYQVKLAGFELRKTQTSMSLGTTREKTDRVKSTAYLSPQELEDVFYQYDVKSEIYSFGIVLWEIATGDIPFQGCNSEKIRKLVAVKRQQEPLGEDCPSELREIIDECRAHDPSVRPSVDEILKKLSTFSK

COc1cc(Nc2[nH]nc(-c3ccc(NC(=O)NCc4ccccc4)cc3)c2C(N)=O)ccn1 [Compound 68, 3-(4-(3-benzylureido)phenyl)-5-((2-methoxypyridin-4-yl)amino)-1H-pyrazole-4-carboxamide]
Kd (RIP3): > 1000 nM
Kd (RIP1): > 1000 nM
Kd (MLKL (full length)): < 100 nM

NC(=O)c1c(-c2ccc(NC(=O)N3CCc4ccc(C(F)(F)F)cc4C3)cc2)n[nH]c1Nc1cccc(C(F)(F)F)n1 [Compound 77, N-(4-(4-carbamoyl-5-((6-(trifluoromethyl)pyridin-2-yl)amino)-1H-pyrazol-3-yl)phenyl)-7-(trifluoromethyl)-3,4-dihydroiso-quinoline-2(1H)-carboxamide]
Kd (RIP3): > 1000 nM
Kd (RIP1): > 1000 nM
Kd (MLKL (full length)): < 100 nM

COCCOc1cccc(Nc2[nH]nc(-c3ccc(NC(=O)Cc4ccccc4)cc3)c2C(N)=O)n1 [Compound 43, 5-((6-(2-methoxyethoxy)pyridin-2-yl)amino)-3-(4-(2-phenyl-acetamido)phenyl)-1H-pyrazole-4-carboxamide]
Kd (RIP3): 100 to 1000 nM
Kd (RIP1): > 1000 nM
Kd (MLKL (full length)): 100 to 1000 nM

NC(=O)c1c(-c2ccc(Nc3c(Nc4cccc(C(F)(F)F)c4)c(=O)c3=O)cc2)n[nH]c1Nc1ccncc1 [Compound 127, 3-(4-((3,4-dioxo-2-((3-(trifluoromethyl)phenyl)amino)cyclobut-1-en-1-yl)amino)phenyl)-5-(pyridin-4-ylamino)-1H-pyrazole-4-carboxamide]
Kd (RIP3): > 1000 nM
Kd (RIP1): > 1000 nM
Kd (MLKL (full length)): > 1000 nM

NC(=O)c1c(-c2ccc(NC(=O)c3ccn(-c4ccccc4)n3)cc2)n[nH]c1Nc1cccc(C(F)(F)F)n1 [Compound 37, N-(4-(4-carbamoyl-5-((6-(trifluoromethyl)pyridin-2-yl)amino)-1H-pyrazol-3-yl)phenyl)-1-phenyl-1H-pyrazole-3-carboxamide]
Kd (RIP3): > 1000 nM
Kd (RIP1): > 1000 nM
Kd (MLKL (full length)): 100 to 1000 nM

NC(=O)c1c(-c2ccc(Nc3c(N4CCCCC4)c(=O)c3=O)cc2)n[nH]c1Nc1ccccn1 [Compound 119, 3-(4-((3,4-dioxo-2-(piperidin-1-yl)cyclobut-1-en-1-yl)amino)phenyl)-5-(pyridin-2-ylamino)-1H-pyrazole-4-carboxamide]
Kd (RIP3): > 1000 nM
Kd (RIP1): > 1000 nM
Kd (MLKL (full length)): > 1000 nM

NC(=O)c1c(-c2ccc(NC(=O)Nc3ccc(OC(F)(F)F)cc3)cc2)n[nH]c1Nc1ccccn1 [Compound 108, 5-(pyridin-2-ylamino)-3-(4-(3-(4-(trifluoromethoxy)phenyl)ureido)phenyl)-1H-pyrazole-4-carboxamide]
Kd (RIP3): > 1000 nM
Kd (RIP1): > 1000 nM
Kd (MLKL (full length)): 100 to 1000 nM

COc1cc(Nc2[nH]nc(-c3ccc(NC(=O)N4CCC(c5cccc(C(F)(F)F)c5)C4)cc3)c2C(N)=O)ccn1 (stereo not drawn) [Compound 69]
Kd (RIP3): > 1000 nM
Kd (RIP1): > 1000 nM
Kd (MLKL (full length)): < 100 nM

COCCOc1cc(Nc2[nH]nc(-c3ccc(NC(=O)C(C)N)cc3)c2C(N)=O)ccn1 (stereo not drawn) [Compound 18, 3-(4-(2-aminopropan-amido)phenyl)-5-((2-(2-methoxyethoxy)pyridin-4-yl)amino)-1H-pyrazole-4-carboxamide]
Kd (RIP3): > 1000 nM
Kd (RIP1): > 1000 nM
Kd (MLKL (full length)): < 100 nM

Cc1nn(-c2ccccc2)c(C)c1C(=O)Nc1ccc(-c2n[nH]c(Nc3cccc(C(F)(F)F)n3)c2C(N)=O)cc1 [Compound 34, N-(4-(4-carbamoyl-5-((6-(trifluoromethyl)pyridin-2-yl)amino)-1H-pyrazol-3-yl)phenyl)-3,5-dimethyl-1-phenyl-1H-pyrazole-4-carboxamide]
Kd (RIP3): > 1000 nM
Kd (RIP1): > 1000 nM
Kd (MLKL (full length)): 100 to 1000 nM

COc1cc(Nc2[nH]nc(-c3ccc(NC(=O)N4CCc5ccc(C(F)(F)F)cc5C4)cc3)c2C(N)=O)ccn1 [Compound 56]
Kd (RIP3): > 1000 nM
Kd (RIP1): 100 to 1000 nM
Kd (MLKL (full length)): < 100 nM

COc1cc(Nc2[nH]nc(-c3ccc(NC(=O)N4CCc5ccccc54)cc3)c2C(N)=O)ccn1 [Compound 55, N-(4-(4-carbamoyl-5-((2-methoxypyridin-4-yl)amino)-1H-pyrazol-3-yl)phenyl)indoline-1-carboxamide]
Kd (RIP3): > 1000 nM
Kd (RIP1): > 1000 nM
Kd (MLKL (full length)): < 100 nM

NC(=O)c1c(-c2ccc(Nc3c(Nc4ccc(F)cc4)c(=O)c3=O)cc2)n[nH]c1Nc1ccccn1 [Compound 122, 3-(4-((2-((4-fluorophenyl)amino)-3,4-dioxocyclobut-1-en-1-yl)amino)phenyl)-5-(pyridin-2-ylamino)-1H-pyrazole-4-carboxamide]
Kd (RIP3): > 1000 nM
Kd (RIP1): > 1000 nM
Kd (MLKL (full length)): 100 to 1000 nM

NC(=O)c1c(-c2ccc(NC(=O)N3Cc4ccccc4C3)cc2)n[nH]c1Nc1cnccn1 [Compound 102, N-(4-(4-carbamoyl-5-(pyrazin-2-ylamino)-1H-pyrazol-3-yl)phenyl)isoindoline-2-carboxamide]
Kd (RIP3): > 1000 nM
Kd (RIP1): > 1000 nM
Kd (MLKL (full length)): < 100 nM

NC(=O)c1c(-c2ccc(NC(=O)N3CCc4ccc(C(F)(F)F)cc4C3)cc2)n[nH]c1Nc1cnccn1 [Compound 99, N-(4-(4-carbamoyl-5-(pyrazin-2-ylamino)-1H-pyrazol-3-yl)phenyl)-7-(trifluoromethyl)-3.4-dihydroisoquinoline-2(1H)-carboxamide]
Kd (RIP3): > 1000 nM
Kd (RIP1): 100 to 1000 nM
Kd (MLKL (full length)): < 100 nM

COc1cc(Nc2[nH]nc(-c3ccc(NC(=O)N4CCC(c5c(C)noc5C)C4)cc3)c2C(N)=O)ccn1 (stereo not drawn) [Compound 73, 3-(4-(3-(3,5-dimethylisoxazol-4-yl)pyrrolidine-1-carboxamido)phenyl)-5-((2-methoxypyridin-4-yl)amino)-1H-pyrazole-4-carboxamide]
Kd (RIP3): > 1000 nM
Kd (RIP1): > 1000 nM
Kd (MLKL (full length)): 100 to 1000 nM

N#Cc1ccc(Nc2[nH]nc(-c3ccc(NC(=O)Nc4ccc(OC(F)(F)F)cc4)cc3)c2C(N)=O)cc1 [Compound 113, 5-((4-cyanophenyl)amino)-3-(4-(3-(4-(trifluoromethoxy)phenyl)ureido)phenyl)-1H-pyrazole-4-carboxamide]
Kd (RIP3): > 1000 nM
Kd (RIP1): > 1000 nM
Kd (MLKL (full length)): > 1000 nM

CC(C)C(C(=O)Nc1ccc(-c2n[nH]c(Nc3ccccn3)c2C(N)=O)cc1)c1ccccc1 (stereo not drawn) [Compound 2, 3-(4-(3-methyl-2-phenyl-butanamido)phenyl)-5-(pyridin-2-ylamino)-1H-pyrazole-4-carboxamide]
Kd (RIP3): > 1000 nM
Kd (RIP1): > 1000 nM
Kd (MLKL (full length)): > 1000 nM
